# From patent US20220153807A1 (published 2022)
# T1: NY-ESO-1 (modified peptide) peptide on HLA-A*02:01 (human)
# T1 peptide: SLLMWITQV
# Biological target: T1, NY-ESO-1 (modified peptide) peptide on …
# Assay: activation reporter or marker
binder,measurement,value
"CT139, MAGE-A3 pep1 TCR (both alpha and beta chains) (TCR, V domains shown) Valpha: AQSVDQPDAHVTLSEGASLELRCSYSYSAAPYLFWYVQYPGQSLQFLLKYITGDTVVKGTKGFEAEFRKSNSSFNLKKSPAHWSDSAKYFCALEGPDTGNYKYVFGAGTRLKVIA Vbeta: DAGVTQTPRHEVAEKGQTIILKCEPVSGHNDLFWYRQTKIQGLELLSYFRSKSLMEDGGAFKDRFKAEMLNSSFSTLKIQPTEPRDSAVYLCASSFGTASAETLYFGSGTRLTVL",binding result,no recognition
